Test results taken from patent publication US20260384418A1, “1-(SULFONYL)-N-PHENYLPYRROLIDINE-2-CARBOXAMIDES DERIVATIVES AND USE THEREOF” (published 2026).

Key:
U2OS = assay: Proliferation assay, U2OS osteosarcoma cells; details: inhibition of proliferation, 5 days, Methyl violet staining; concentration not given
Description: (§1) Compound INK-150.46 (or SLB-605) was assayed against several cancer cell lines in proliferation assays.
(§2) All measurements except for D283 cells were taken using an in vitro test to measure cell growth based on Methyl violet staining after 5 days of incubation with the aforementioned drug or control vehicle (DMSO). The procedure was carried out in a 96-well plate. After 1 wash with phosphate-buffered saline (PBS), cells were stained for 20 minutes at room temperature with Methyl violet (0.5% w/v in water). After 5 washes with PBS, and the addition of acetic acid (10% in water), plates were read in a spectrophotometer at 590 nm. All conditions were tested in 6 independent wells and results expressed as a mean of all replicates.

D283 = assay: Proliferation assay, D283 medulloblastoma cells (direct cell counting); details: inhibition of proliferation, 5 days of treatment, concentration not given
Description: as §1
(§3) D283 cells assay was carried in 12-well plates. Cells were seeded in low density and incubated during 24 hours in EMEM medium. Suspended cells of each well were harvested by centrifugation of the recovered medium and returned to the wells with the correspondent treatment. After 5 days of treatment, all cells were recovered and directly counted using EVE™ Automated Cell Counter (NanoEntek).

[1] = system: several cancer cell lines; assay: Proliferation assays against several cancer cell lines (overall result); details: assayed lines RD, RH4, SKNBE2, SHSY5Y, U2OS, D283
Description: as §1, §2, §3

[2] = system: NFATc activation in HEK 293T cells; assay: NFATc activation, 3×NFAT-luc dual-luciferase reporter assay in HEK 293T cells; details: ionomycin/PMA/CaCl2 stimulation, at least at 100, 50 and 20 μM, FIG. 1
Description: To determine the effect of compounds of formula (I) on NFATc activation, HEK 293T cells were transfected with 3×NFAT-luc reporter gene and Renilla-luc plasmid as control of gene transfection. After 24 hours, to activate the cellular CN-NFATc signaling pathway, cells were stimulated with ionomycin (lo), PMA and CaCl2 for 4 h to raise intracellular concentration of calcium. As positive control of inhibition of CN activity, cells were treated with 1 μM of CsA 30 min prior to lo/PMA/CaCl2 stimulation. Then, cells were treated with compounds of formula (I) at several concentrations for 2 hours and light units analyzed following manufacture's protocol of the dual-luciferase reporter assay system (FIG. 1, Functional effect of pair related structure compounds on NFATc activation).

cancer = details: reference compounds used as calcineurin inhibitors; cited from earlier work

SMILES	Effect over U2OS (U2OS) [%]	Effect over D283 (D283) [%]	inhibition of cellular proliferation (in words) [1]	inhibition of NFATc activation [2]	anti-cancer activity of reference compounds (in words) (cancer)	suspected tumorigenicity of reference compounds (in words) (cancer)
Cc1c(Cl)cc(F)cc1S(=O)(=O)N1CCCC1C(=O)N(Cn1nnc2ccccc21)c1ccccc1 (centres unmarked)	52.0	33.3	good inhibition of cellular proliferation	strongly inhibits NFATc activation		
C=C/C=C/C[C@@H](C)[C@@H](O)[C@H]1C(=O)N[C@@H](CC)C(=O)N(C)CC(=O)N(C)[C@@H](CC(C)C)C(=O)N[C@@H](C(C)C)C(=O)N(C)[C@@H](CC(C)C)C(=O)N[C@@H](C)C(=O)N[C@H](C)C(=O)N(C)[C@@H](CC(C)C)C(=O)N(C)[C@@H](CC(C)C)C(=O)N(C)[C@@H](C(C)C)C(=O)N1C					does not show anti-cancer activity	suspected of causing tumors
C=CC[C@@H]1/C=C(\C)C[C@H](C)C[C@H](OC)[C@H]2O[C@@](O)(C(=O)C(=O)N3CCCC[C@H]3C(=O)O[C@H](/C(C)=C/[C@@H]3CC[C@@H](O)[C@H](OC)C3)[C@H](C)[C@@H](O)CC1=O)[C@H](C)C[C@@H]2OC					does not show anti-cancer activity	suspected of causing tumors
